Values of other authors in US20140128375A1, “B[…] AS CGRP RECEPTOR ANTAGONISTS” (priority 2006, published 2014).

By UniProt entry, the sequences of proteins in these tests, tags left out. Residues count along the entry.
UniProt Q63118, 24-464: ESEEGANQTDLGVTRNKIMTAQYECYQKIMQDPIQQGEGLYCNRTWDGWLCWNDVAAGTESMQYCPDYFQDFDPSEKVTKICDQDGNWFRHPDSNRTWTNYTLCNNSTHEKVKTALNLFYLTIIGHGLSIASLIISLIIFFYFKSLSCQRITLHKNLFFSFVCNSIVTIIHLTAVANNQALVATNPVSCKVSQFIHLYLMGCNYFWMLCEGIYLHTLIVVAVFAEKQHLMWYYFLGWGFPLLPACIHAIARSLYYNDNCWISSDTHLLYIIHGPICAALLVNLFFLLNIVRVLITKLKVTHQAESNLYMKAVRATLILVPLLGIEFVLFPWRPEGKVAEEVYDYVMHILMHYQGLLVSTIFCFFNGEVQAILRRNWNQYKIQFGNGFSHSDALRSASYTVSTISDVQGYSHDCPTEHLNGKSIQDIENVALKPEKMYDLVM
UniProt Q9JJ74, 27-148: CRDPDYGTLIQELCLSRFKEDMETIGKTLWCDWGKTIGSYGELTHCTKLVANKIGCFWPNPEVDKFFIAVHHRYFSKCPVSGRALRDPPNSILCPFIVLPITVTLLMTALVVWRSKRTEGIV

Tests used:
CGRP [1] = molecular target: T1, CGRP (Rattus norvegicus, UniProt Q63118+Q9JJ74); settings: rats, electrical stimulation of the dura mater, prior administration
T1 construct: host or cells: living rat (dural and facial vasculature)

CGRP [2] = molecular target: T1, CGRP; settings: trigeminal ganglion stimulation

CGRP(8-37)
effect on increase of middle meningeal artery diameter (CGRP [1]): blocked
effect on increase of facial blood flow (CGRP [2]): inhibited
